Only a part is listed here, and it is no random draw. Active and inactive are the calls of the source. Rule as the data show it: active = survival enhancement above about 18%; inactive = the rest.

This assay can be described thus: enhancers of single-cell hiPSC survival, primary screen, ATPlite luminescence (AID 602274).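 Also: cells exposed to compounds for 16 hours before the ATP read.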 To be noted: at 20 µM, stronger effect = higher value, 100% = ROCK inhibitor wells, 0% = DMSO.
As for `COc1ccc(C(=O)NCC2(N3CCCCC3)CCCCC2)c(OC)c1OC`, the survival enhancement is inactive: 2%.

On to `CC(C)(C)OC(=O)N1CCC(N(C(=O)c2ccccc2)c2ccc(F)cc2)CC1`, for which the survival enhancement is inactive: 0%.

With `COc1ccc(C(=O)NCC2(N3CCCCC3)CCCCC2)cc1`, the survival enhancement was inactive: -0.4%. The figure for `CCCCn1nnnc1C(c1cccs1)N1CCC(n2c(=O)[nH]c3ccccc32)CC1` (configuration not stated) is inactive: -0.8%; for `CCCCn1nnnc1C(CC)N1CCC(n2c(=O)[nH]c3ccccc32)CC1` (configuration not stated) it is inactive: 1.9%; for `O=C(NCC1(N2CCCCC2)CCCCC1)c1cccs1` it is inactive: -0.5%. On to `O=C(NCC1(N2CCCCC2)CCCCC1)c1ccc(=O)[nH]c1`, for which the survival enhancement is inactive: 0.4%. As for `COc1cc(C(=O)NCC2(N(C)C)CCCCC2)ccc1OC(F)F`, the survival enhancement is inactive: -0.4%. The figure for `CCOC(=O)N1CCC(Nc2cccc(C)c2)CC1` is inactive: 0.4%. On to `O=c1[nH]c2ccccc2n1C1CCN(C(c2cccc3ccccc23)c2nnnn2C2CCCC2)CC1` (configuration not stated), for which the survival enhancement is inactive: -0.8%. `O=c1[nH]c2ccccc2n1C1CCN(C(c2ccccc2)c2nnnn2C2CCCCC2)CC1` (configuration not stated): the survival enhancement is inactive: 0.5%.

For `CCOC(=O)N1CCC(Nc2ccc(F)cc2)CC1`, the survival enhancement is inactive: 1%. The figure for `COc1ccc(NC2CCN(CCc3ccccc3)CC2)c(OC)c1` is inactive: -1.5%; for `O=C(NCC1(N2CCCCC2)CCCCC1)c1ccc(F)cc1` it is inactive: -0.3%; for `CCCCOc1ccc(C(=O)NCC2(N3CCOCC3)CCCCC2)cc1` it is inactive: -0.2%.

As for `CCCCn1nnnc1C(c1cc2ccccc2o1)N1CCC(n2c(=O)[nH]c3ccccc32)CC1` (configuration not stated), the survival enhancement is inactive: -1.8%. The figure for `O=P1(N(CCCl)CCCl)SCCCS1` is inactive: 3%; for `O=C1CCN(Cc2ccccc2)CC1` it is inactive: 2.7%. The figure for `CC(C)(C)n1nnnc1C(c1ccccc1)N1CCC(n2c(=O)[nH]c3ccccc32)CC1` (configuration not stated) is inactive: 0.3%. The figure for `CCOc1ccc(C)cc1CN(CCCl)CCCl` is inactive: 0.2%. In the case of `O=C(NCC1(N2CCOCC2)CCCCC1)c1cc(=O)[nH]c2ccccc12`, the survival enhancement was inactive: -0.2%. The figure for `COc1cc(C(=O)NCC2(N3CCCCC3)CCCCC2)ccc1OC(F)F` is inactive: -0.1%. The figure for `CCCCn1nnnc1C(c1cccc2ccccc12)N1CCC(n2c(=O)[nH]c3ccccc32)CC1` (configuration not stated) is inactive: 1.2%; for `COc1ccc(NC2CCN(C(=O)OC(C)(C)C)CC2)cc1` it is inactive: 2.6%; for `CC(C)c1ccc(C(=O)NCC2(N3CCOCC3)CCCCC2)cc1` it is inactive: 0.6%. The figure for `CN1CCN(CCOC(=O)C(O)(c2ccccc2)c2ccccc2)CC1` is inactive: 2.6%; for `O=C(NCC1(N2CCCCC2)CCCCC1)c1cccc(C(F)(F)F)c1` it is inactive: -0.5%; for `N#CC1(Nc2ccccc2)CCN(CCc2ccccc2)CC1` it is inactive: 3.2%. Consider `O=c1[nH]c2ccccc2n1C1CCN(C(c2ccccc2OC(F)(F)F)c2nnnn2C2CCCC2)CC1` (configuration not stated), for which the survival enhancement is inactive: 1.1%. The figure for `CCN1CCC(Nc2ccc(Cl)cc2)CC1` is inactive: -0.1%.

For `O=C(NCC1(N2CCCCC2)CCCCC1)c1cccc([N+](=O)[O-])c1`, the survival enhancement was inactive: 1.6%. Regarding `CSc1ccc(C(=O)NCC2(N3CCOCC3)CCCCC2)cc1`, the survival enhancement was inactive: 0%. The figure for `O=C(NCC1(N2CCCCC2)CCCCC1)c1ccc(OC(F)F)cc1` is inactive: 0.2%. In the case of `CC(C)(C)n1nnnc1C(c1ccccc1OC(F)(F)F)N1CCC(n2c(=O)[nH]c3ccccc32)CC1` (configuration not stated), the survival enhancement is inactive: 4.8%. The figure for `COc1ccc(C(c2nnnn2C2CCCC2)N2CCC(n3c(=O)[nH]c4ccccc43)CC2)cc1` (configuration not stated) is inactive: -0.7%; for `CCCOc1ccc(C(=O)NCC2(N(C)C)CCCCC2)cc1OC` it is inactive: -0.3%; for `Cc1ccc(C(=O)NCC2(N(C)C)CCCCC2)o1` it is inactive: 3.3%. As to `O=C(NCC1(N2CCCCC2)CCCCC1)c1cncc(Br)c1`, the survival enhancement was inactive: -0.5%. For the compound `CN1CCC(Nc2cccc(F)c2)CC1`, the survival enhancement is inactive: -0.5%. For `O=C(NCC1(N2CCOCC2)CCCCC1)c1cc(F)c(F)cc1Cl`, the survival enhancement is inactive: 0.4%.

Take `CCC(c1nnnn1C(C)(C)C)N1CCC(n2c(=O)[nH]c3ccccc32)CC1` (configuration not stated): the survival enhancement is inactive: -0.8%.

For `COc1cc(OC)c(C(=O)NCC2(N(C)C)CCCCC2)cc1OC`, the survival enhancement is inactive: 1.7%. The figure for `CCCCn1nnnc1C(c1ccnc2ccccc12)N1CCC(n2c(=O)[nH]c3ccccc32)CC1` (configuration not stated) is inactive: 0.3%. The figure for `CCCCn1nnnc1C(c1ccccc1OC(F)(F)F)N1CCC(n2c(=O)[nH]c3ccccc32)CC1` (configuration not stated) is inactive: 1.3%.

In the case of `CC(C)c1ccc(NC2CCN(C(=O)OC(C)(C)C)CC2)cc1`, the survival enhancement is inactive: 0.3%. The figure for `CN(C)c1cccc(C(=O)NCC2(N3CCCCC3)CCCCC2)c1` is inactive: 0.2%; for `COc1ccc(CN(CCCl)CCCl)cc1Cl` it is inactive: 0.9%.

Source of the values: PubChem BioAssay AID602274 (Sanford-Burnham Center for Chemical Genomics, 2012).
